Laboratory results reported in patent US20260384450A1, “MACROCYCLIC AMINOPYRIDINE COMPOUNDS AS EGFR INHIBITORS” (published 2026).
Read-outs that look alike come from different tables or passages of the source.

Chains of the proteins cited; added tags and fusions are not shown. Lines headed by an entry give the natural chain unless they say otherwise; changes in a name come on top. A line that says so, or that is headed by a name, gives the form on record, which may keep a tag or linker. Residues count along the entry.
UniProt P00533, 25-1210 limits assumed: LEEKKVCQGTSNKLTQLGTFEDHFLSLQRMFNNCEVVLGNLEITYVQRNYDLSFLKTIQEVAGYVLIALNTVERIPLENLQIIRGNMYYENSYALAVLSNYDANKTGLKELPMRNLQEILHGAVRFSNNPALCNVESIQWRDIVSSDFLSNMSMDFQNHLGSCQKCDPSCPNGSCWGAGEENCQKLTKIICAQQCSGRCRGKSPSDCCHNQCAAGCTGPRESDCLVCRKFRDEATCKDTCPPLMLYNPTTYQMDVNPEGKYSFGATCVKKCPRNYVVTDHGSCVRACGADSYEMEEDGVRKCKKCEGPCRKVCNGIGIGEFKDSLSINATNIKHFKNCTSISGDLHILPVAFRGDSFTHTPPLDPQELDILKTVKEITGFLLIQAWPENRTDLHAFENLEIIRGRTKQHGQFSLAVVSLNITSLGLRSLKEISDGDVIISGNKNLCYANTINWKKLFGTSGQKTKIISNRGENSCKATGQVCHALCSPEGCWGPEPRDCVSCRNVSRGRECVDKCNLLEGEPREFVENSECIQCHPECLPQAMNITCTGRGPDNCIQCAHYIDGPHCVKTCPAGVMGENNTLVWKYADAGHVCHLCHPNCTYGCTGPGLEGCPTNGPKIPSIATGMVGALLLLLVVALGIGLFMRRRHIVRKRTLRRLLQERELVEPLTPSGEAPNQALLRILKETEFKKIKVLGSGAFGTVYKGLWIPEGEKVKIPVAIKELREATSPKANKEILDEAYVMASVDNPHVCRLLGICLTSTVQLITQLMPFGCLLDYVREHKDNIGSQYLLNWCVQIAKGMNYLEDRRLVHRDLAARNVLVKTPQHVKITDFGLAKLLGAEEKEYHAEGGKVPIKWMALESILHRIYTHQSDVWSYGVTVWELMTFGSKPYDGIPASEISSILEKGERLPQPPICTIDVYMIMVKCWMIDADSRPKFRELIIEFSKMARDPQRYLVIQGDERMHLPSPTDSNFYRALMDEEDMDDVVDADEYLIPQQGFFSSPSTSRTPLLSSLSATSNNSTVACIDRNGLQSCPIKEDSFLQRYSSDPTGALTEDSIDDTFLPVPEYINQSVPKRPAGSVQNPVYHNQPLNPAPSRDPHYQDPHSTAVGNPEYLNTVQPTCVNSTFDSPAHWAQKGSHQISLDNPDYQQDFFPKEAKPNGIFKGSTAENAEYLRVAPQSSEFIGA
UniProt P00533, 25-1210 C797S/L858R limits assumed: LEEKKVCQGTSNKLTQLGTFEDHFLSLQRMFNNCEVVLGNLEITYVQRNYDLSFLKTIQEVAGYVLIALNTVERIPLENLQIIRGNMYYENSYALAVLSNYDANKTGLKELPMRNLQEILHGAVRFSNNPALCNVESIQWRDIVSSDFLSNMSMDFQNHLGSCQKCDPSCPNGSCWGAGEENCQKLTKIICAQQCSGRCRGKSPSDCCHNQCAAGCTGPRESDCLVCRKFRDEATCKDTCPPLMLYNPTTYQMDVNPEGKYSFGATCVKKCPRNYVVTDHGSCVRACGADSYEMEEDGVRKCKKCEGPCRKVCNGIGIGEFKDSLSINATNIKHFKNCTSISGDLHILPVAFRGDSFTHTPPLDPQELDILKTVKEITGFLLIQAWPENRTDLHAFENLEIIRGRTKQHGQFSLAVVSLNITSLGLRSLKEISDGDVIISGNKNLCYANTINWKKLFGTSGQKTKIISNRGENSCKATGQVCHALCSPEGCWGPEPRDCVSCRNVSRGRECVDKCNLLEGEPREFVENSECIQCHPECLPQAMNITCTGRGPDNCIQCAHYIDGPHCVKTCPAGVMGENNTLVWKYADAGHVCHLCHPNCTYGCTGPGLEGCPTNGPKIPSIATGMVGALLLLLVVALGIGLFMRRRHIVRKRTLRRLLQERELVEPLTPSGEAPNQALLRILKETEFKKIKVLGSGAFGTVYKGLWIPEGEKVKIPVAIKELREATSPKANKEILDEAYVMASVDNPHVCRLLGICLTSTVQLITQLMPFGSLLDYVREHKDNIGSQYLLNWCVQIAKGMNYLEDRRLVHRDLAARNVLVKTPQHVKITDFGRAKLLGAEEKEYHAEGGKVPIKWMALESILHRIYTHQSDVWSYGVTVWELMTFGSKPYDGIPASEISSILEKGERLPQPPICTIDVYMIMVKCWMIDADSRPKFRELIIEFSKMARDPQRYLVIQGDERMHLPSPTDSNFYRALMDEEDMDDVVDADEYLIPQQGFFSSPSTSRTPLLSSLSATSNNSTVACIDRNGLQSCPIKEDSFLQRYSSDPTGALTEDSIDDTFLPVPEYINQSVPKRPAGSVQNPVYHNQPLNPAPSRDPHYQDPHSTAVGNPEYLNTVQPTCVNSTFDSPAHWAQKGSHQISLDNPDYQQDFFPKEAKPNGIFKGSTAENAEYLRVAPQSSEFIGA
UniProt P00533, 25-1210 T790M/C797S/L858R limits assumed: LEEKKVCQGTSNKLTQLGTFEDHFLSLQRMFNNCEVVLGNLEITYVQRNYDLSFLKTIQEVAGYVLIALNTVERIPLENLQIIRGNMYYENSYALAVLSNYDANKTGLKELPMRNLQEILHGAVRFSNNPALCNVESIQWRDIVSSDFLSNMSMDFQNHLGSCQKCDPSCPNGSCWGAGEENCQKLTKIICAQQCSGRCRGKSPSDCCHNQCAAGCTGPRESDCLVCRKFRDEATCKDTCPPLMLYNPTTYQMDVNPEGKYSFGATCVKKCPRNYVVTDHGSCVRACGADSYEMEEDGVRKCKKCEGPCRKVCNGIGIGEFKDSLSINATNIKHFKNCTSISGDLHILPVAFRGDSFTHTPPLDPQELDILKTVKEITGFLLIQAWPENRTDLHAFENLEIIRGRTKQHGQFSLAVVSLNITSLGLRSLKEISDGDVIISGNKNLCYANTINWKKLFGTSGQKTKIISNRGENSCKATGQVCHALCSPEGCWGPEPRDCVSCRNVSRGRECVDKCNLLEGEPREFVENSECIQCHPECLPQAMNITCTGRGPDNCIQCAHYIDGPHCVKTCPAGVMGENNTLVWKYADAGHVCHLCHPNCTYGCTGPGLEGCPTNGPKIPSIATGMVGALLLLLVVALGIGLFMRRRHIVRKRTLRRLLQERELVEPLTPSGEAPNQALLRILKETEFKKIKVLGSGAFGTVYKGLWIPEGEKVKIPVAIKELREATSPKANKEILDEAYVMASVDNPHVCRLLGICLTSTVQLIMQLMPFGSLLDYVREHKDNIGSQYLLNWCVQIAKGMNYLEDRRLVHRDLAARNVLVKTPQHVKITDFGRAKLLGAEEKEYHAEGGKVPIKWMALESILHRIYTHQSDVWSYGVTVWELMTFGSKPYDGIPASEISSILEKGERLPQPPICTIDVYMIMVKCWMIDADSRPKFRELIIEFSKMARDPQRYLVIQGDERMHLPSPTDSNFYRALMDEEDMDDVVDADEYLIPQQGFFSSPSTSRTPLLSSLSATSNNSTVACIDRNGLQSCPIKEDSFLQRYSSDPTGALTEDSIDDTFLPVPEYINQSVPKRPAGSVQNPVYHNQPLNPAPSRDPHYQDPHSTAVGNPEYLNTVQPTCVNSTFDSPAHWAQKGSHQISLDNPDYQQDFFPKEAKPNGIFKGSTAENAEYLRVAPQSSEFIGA
UniProt P00533, with tags, fused parts or gaps DEL746-750/C797S limits assumed: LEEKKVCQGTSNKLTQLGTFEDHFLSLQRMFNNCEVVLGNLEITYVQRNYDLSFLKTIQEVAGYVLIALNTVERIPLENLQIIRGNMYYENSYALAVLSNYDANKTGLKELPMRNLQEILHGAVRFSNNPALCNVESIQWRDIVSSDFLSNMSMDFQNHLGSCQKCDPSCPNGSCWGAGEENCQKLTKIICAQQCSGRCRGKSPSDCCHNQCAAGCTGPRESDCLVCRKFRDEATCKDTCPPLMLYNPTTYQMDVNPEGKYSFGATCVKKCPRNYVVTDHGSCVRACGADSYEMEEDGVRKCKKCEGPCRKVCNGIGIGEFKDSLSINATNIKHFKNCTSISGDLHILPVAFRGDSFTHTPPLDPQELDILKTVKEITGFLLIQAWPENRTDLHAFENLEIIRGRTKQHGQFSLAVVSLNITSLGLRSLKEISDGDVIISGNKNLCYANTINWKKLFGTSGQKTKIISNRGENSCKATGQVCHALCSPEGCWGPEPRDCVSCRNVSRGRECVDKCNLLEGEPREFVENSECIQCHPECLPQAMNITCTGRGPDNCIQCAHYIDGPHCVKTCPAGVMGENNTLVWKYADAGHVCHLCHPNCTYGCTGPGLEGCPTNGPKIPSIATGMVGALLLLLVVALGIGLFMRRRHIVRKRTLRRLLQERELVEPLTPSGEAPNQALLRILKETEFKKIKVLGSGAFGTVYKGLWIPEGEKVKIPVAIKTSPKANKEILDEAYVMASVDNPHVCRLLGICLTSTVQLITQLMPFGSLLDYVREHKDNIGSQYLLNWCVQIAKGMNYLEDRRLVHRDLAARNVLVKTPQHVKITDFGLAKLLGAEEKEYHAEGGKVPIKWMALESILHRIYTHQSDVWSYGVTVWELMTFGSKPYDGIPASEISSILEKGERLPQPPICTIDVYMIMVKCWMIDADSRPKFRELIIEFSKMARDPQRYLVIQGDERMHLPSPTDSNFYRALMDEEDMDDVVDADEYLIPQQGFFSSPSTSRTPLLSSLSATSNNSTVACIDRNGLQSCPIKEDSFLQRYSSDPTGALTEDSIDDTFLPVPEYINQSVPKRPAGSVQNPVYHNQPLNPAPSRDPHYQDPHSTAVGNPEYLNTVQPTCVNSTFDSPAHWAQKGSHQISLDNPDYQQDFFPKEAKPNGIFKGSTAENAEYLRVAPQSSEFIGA
UniProt P00533, with tags, fused parts or gaps DEL746-750/T790M/C797S limits assumed: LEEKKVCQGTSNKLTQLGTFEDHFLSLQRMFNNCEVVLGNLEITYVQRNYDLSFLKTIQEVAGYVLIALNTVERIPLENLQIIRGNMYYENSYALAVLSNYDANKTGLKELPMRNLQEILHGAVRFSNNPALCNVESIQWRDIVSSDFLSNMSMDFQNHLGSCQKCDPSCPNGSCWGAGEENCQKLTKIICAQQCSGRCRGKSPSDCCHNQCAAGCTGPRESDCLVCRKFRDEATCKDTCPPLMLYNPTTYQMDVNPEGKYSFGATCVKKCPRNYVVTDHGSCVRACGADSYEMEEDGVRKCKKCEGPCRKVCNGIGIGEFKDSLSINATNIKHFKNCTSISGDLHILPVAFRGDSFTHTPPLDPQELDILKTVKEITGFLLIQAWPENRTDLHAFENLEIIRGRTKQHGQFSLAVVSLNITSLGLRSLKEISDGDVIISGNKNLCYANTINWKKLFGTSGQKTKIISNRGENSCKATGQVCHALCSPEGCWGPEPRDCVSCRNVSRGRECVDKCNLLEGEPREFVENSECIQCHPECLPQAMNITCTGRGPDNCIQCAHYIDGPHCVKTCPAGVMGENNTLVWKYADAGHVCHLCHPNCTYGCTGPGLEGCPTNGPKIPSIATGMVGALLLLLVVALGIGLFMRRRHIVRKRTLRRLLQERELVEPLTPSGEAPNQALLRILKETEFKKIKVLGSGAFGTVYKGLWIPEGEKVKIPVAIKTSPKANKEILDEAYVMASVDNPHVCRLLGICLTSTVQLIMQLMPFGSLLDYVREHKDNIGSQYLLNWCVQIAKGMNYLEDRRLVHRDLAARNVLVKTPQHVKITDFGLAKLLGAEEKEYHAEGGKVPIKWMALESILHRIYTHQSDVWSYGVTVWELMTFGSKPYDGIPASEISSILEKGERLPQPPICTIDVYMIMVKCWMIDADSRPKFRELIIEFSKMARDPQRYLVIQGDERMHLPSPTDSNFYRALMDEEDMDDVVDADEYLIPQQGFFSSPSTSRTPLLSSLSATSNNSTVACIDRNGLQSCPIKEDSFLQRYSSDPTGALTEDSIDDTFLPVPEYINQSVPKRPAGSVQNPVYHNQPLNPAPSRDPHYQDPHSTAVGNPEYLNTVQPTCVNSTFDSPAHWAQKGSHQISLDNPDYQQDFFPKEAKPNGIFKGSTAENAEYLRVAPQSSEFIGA

Assays:
[1] = biological target: EGFR D19CS (del19/C797S) (Homo sapiens, UniProt P00533, C797S/DEL746-750); assay: Biochemical EGFR kinase assay (Lance Ultra TR-FRET), double mutant del19/C797S
Protocol: (§1) Biochemical EGFR kinase assays were conducted using Lance Ultra time-resolved fluorescence resonance energy transfer (TR-FRET) technology from Perkin-Elmer. Compounds of the invention were initially diluted to 20 mM in 100% DMSO for storage and made into kinase buffer solution to create a compound concentration ranging from 0.003 μM and 10 μM.
(§2) Briefly, each EGFR enzyme wildtype (EGFR WT), double mutant [del19/C797S (EGFR D19CS) and L858R/C797S (EGFR LRCS)], triple mutant [del19/T790M/C797S (EGFR D19TMCS) and L858R/T790M/C797S (EGFR LRTMCS)], serial diluted EGFR inhibitors, substrate of ULight-poly-GT peptide (PerkinElmer; TRF0100-M) and different concentrations of ATP (Km and 100 μM final assay concentration) were mixed in kinase assay buffer (50 mM HEPES pH 7.4, 10 mM MgCl2, 1 mM EGTA, 2 mM DTT and 0.01% Tween-20) and were added to a 384-well plate (Optiplate™ 384, white, PerkinElmer; 6007290).
(§3) Each kinase reactions were incubated at room temperature for 1 hour and then stopped by the addition of 4 μL of stop solution (10 mM EDTA). The specific Europium-labeled-anti-phosphopeptide antibody (PerkinElmer, AD0069) diluted in LANCE detection buffer was then added to a final concentration of 2 nM. After 60 minutes incubation at room temperature the LANCE signal was measured on an EnVision Multilabel Reader (Perkin-Elmer). Excitation wavelength was set at 320 nm and emission monitored at 615 nm (donor) and 665 nm (acceptor). The IC50 values were determined using GraphPad prism software (GraphPad Software, Inc., San Diego, CA, USA).

[2] = biological target: EGFR LRCS (L858R/C797S) (Homo sapiens, UniProt P00533, C797S/L858R); assay: Biochemical EGFR kinase assay (Lance Ultra TR-FRET), double mutant L858R/C797S
Protocol: as §1, §2, §3

[3] = biological target: EGFR LRTMCS (L858R/T790M/C797S) (Homo sapiens, UniProt P00533, C797S/L858R/T790M); assay: Biochemical EGFR kinase assay (Lance Ultra TR-FRET), triple mutant L858R/T790M/C797S
Protocol: as §1, §2, §3

[4] = biological target: EGFR D19TMCS (del19/T790M/C797S) (Homo sapiens, UniProt P00533, C797S/DEL746-750/T790M); assay: Biochemical EGFR kinase assay (Lance Ultra TR-FRET), triple mutant del19/T790M/C797S
Protocol: as §1, §2, §3

[5] = biological target: EGFR WT (Homo sapiens, UniProt P00533); assay: Biochemical EGFR kinase assay (Lance Ultra TR-FRET), wildtype
Protocol: as §1, §2, §3

[6] = read-out: EGFR D19CS IC50, ATP 1 mM
[7] = read-out: EGFR D19CS IC50, ATP Km
[8] = read-out: EGFR LRCS IC50, ATP 1 mM
[9] = read-out: EGFR LRCS IC50, ATP Km
[10] = read-out: EGFR LRTMCS IC50, ATP 1 mM
[11] = read-out: EGFR LRTMCS IC50, ATP Km
[12] = read-out: EGFR D19TMCS IC50, ATP 1 mM
[13] = read-out: EGFR D19TMCS IC50, ATP Km
[14] = read-out: EGFR WT IC50, ATP 1 mM
[15] = read-out: IC50, EGFR-D19CS, 1 mM, ATP 1 mM, EGFR del19/C797S
[16] = read-out: IC50, EGFR-D19CS, Km, ATP at Km, EGFR del19/C797S
[17] = read-out: IC50, EGFR-LRCS, 1 mM, ATP 1 mM, EGFR L858R/C797S
[18] = read-out: IC50, EGFR-LRCS, Km, ATP at Km, EGFR L858R/C797S
[19] = read-out: IC50, EGFR LRTMCS, 1 mM, ATP 1 mM, EGFR L858R/T790M/C797S
[20] = read-out: IC50, EGFR LRTMCS, Km, ATP at Km, EGFR L858R/T790M/C797S
[21] = read-out: IC50, EGFR D19TMCS, Km, ATP at Km, EGFR del19/T790M/C797S
[22] = read-out: IC50, EGFR WT, 1 mM, ATP 1 mM, EGFR wildtype
[23] = read-out: IC50, EGFR WT, Km, ATP at Km, EGFR wildtype

C[C@H]1CCOc2c(cnn2C)-c2nccc(n2)Nc2cc(c(-c3cnc(OC4COC4)cn3)cn2)N1
IC50 [1, 6]: 10 to 100 nM
IC50 [1, 7]: < 10 nM
IC50 [2, 8]: 100 to 1000 nM
IC50 [2, 9]: < 10 nM
IC50 [3, 10]: < 10 nM
IC50 [3, 11]: < 10 nM
IC50 [4, 12]: < 10 nM
IC50 [4, 13]: < 10 nM
IC50 [5, 14]: > 1000 nM
IC50 ([5]; read-out: EGFR WT IC50, ATP Km): 10 to 100 nM

Cc1nn(C)c2c1-c1nccc(n1)Nc1cc(c(-c3cc(OC(F)F)ccn3)cn1)NCC(C)(C)CO2
IC50 [1, 6]: 10 to 100 nM
IC50 [1, 7]: 10 to 100 nM
IC50 [2, 8]: 100 to 1000 nM
IC50 [2, 9]: 10 to 100 nM
IC50 [3, 10]: 10 to 100 nM
IC50 [3, 11]: < 10 nM
IC50 [4, 12]: < 10 nM
IC50 [4, 13]: < 10 nM
IC50 [5, 14]: > 1000 nM
IC50 ([5]; read-out: EGFR WT IC50, ATP Km): 10 to 100 nM

Cc1nn(C)c2c1-c1nccc(n1)Nc1cc(c(-c3ccc(OC4CCN(C)CC4)cn3)cn1)NCC[C@@H](C)O2
IC50 [1, 6]: < 10 nM
IC50 [1, 7]: < 10 nM
IC50 [2, 8]: < 10 nM
IC50 [2, 9]: < 10 nM
IC50 [3, 10]: < 10 nM
IC50 [3, 11]: < 10 nM
IC50 [4, 12]: < 10 nM
IC50 [4, 13]: < 10 nM
IC50 [5, 14]: 10 to 100 nM
IC50 ([5]; read-out: EGFR WT IC50, ATP Km): < 10 nM

Cc1nn(C)c2c1-c1nccc(n1)Nc1cc(c(-c3cnc(CN4CC5(COC5)C4)cn3)cn1)NCC[C@H](C)O2
IC50 [1, 15]: < 10 nM
IC50 [1, 16]: < 10 nM
IC50 [2, 17]: < 10 nM
IC50 [2, 18]: < 10 nM
IC50 [3, 19]: < 10 nM
IC50 [3, 20]: < 10 nM
IC50 [4, 21]: < 10 nM
IC50 [5, 22]: > 1000 nM
IC50 [5, 23]: < 10 nM

C[C@H]1CCOc2c(cnn2C)-c2nccc(n2)Nc2cc(c(-c3nccc(OC(F)F)c3F)cn2)N1
IC50 [1, 6]: > 1000 nM
IC50 [1, 7]: 10 to 100 nM
IC50 [2, 8]: > 1000 nM
IC50 [2, 9]: 10 to 100 nM
IC50 [3, 10]: 10 to 100 nM
IC50 [3, 11]: < 10 nM
IC50 [4, 12]: < 10 nM
IC50 [4, 13]: < 10 nM
IC50 [5, 14]: > 1000 nM
IC50 ([5]; read-out: EGFR WT IC50, ATP Km): 10 to 100 nM

Cn1ncc2c1OCC1(CC1)CNc1cc(ncc1-c1ccn(C(F)F)n1)Nc1ccnc-2n1
IC50 [1, 6]: 100 to 1000 nM
IC50 [1, 7]: 10 to 100 nM
IC50 [2, 8]: 100 to 1000 nM
IC50 [2, 9]: 10 to 100 nM
IC50 [3, 10]: < 10 nM
IC50 [3, 11]: < 10 nM
IC50 [4, 12]: < 10 nM
IC50 [4, 13]: < 10 nM
IC50 [5, 14]: > 1000 nM
IC50 ([5]; read-out: EGFR WT IC50, ATP Km): 10 to 100 nM

C[C@H]1CCOc2c(cnn2C)-c2nccc(n2)Nc2cc(c(-c3ccc(C(C)(C)O)cn3)cn2)N1
IC50 [1, 6]: < 10 nM
IC50 [1, 7]: < 10 nM
IC50 [2, 8]: 10 to 100 nM
IC50 [2, 9]: < 10 nM
IC50 [3, 10]: < 10 nM
IC50 [3, 11]: < 10 nM
IC50 [4, 12]: < 10 nM
IC50 [4, 13]: < 10 nM
IC50 [5, 14]: > 1000 nM
IC50 ([5]; read-out: EGFR WT IC50, ATP Km): < 10 nM

Cn1ncc2c1OCC1(CNc3cc(ncc3-c3ccn(C(F)F)n3)Nc3ccnc-2n3)COC1
IC50 [1, 6]: 100 to 1000 nM
IC50 [1, 7]: 10 to 100 nM
IC50 [2, 8]: 100 to 1000 nM
IC50 [2, 9]: 10 to 100 nM
IC50 [3, 10]: < 10 nM
IC50 [3, 11]: < 10 nM
IC50 [4, 12]: < 10 nM
IC50 [4, 13]: < 10 nM
IC50 [5, 14]: > 1000 nM
IC50 ([5]; read-out: EGFR WT IC50, ATP Km): 100 to 1000 nM

CO[C@H]1CC[C@H](Nc2ccnc(-c3cnc4cc3N[C@@H](C)CCOc3c(cnn3C)-c3nccc(n3)N4)c2)C1
IC50 [1, 6]: 100 to 1000 nM
IC50 [1, 7]: 10 to 100 nM
IC50 [2, 8]: 100 to 1000 nM
IC50 [2, 9]: 10 to 100 nM
IC50 [3, 10]: 10 to 100 nM
IC50 [3, 11]: < 10 nM
IC50 [4, 12]: < 10 nM
IC50 [4, 13]: < 10 nM
IC50 [5, 14]: > 1000 nM
IC50 ([5]; read-out: EGFR WT IC50, ATP Km): 10 to 100 nM

Cn1ncc2c1OC[C@H](F)CNc1cc(ncc1-c1ccc(OC(F)F)cn1)Nc1ccnc-2n1
IC50 [1, 6]: > 1000 nM
IC50 [1, 7]: > 1000 nM
IC50 [2, 8]: > 1000 nM
IC50 [2, 9]: > 1000 nM
IC50 [3, 10]: > 1000 nM
IC50 [3, 11]: 10 to 100 nM
IC50 [4, 12]: 100 to 1000 nM
IC50 [4, 13]: 10 to 100 nM
IC50 [5, 14]: > 1000 nM
IC50 ([5]; read-out: EGFR WT IC50, ATP Km): > 1000 nM

Cn1nc(-c2cnc3cc2NCC(C)(C)COc2c(cnn2C)-c2nccc(n2)N3)cc1C(F)(F)F
IC50 [1, 6]: 100 to 1000 nM
IC50 [1, 7]: 10 to 100 nM
IC50 [2, 8]: > 1000 nM
IC50 [2, 9]: 10 to 100 nM
IC50 [3, 10]: < 10 nM
IC50 [3, 11]: < 10 nM
IC50 [4, 12]: < 10 nM
IC50 [4, 13]: < 10 nM
IC50 [5, 14]: > 1000 nM
IC50 ([5]; read-out: EGFR WT IC50, ATP Km): 10 to 100 nM

Cc1nn(C)c2c1-c1nccc(n1)Nc1cc(c(-c3cc(C(C)(C)O)ccn3)cn1)N[C@@H](C)CCO2
IC50 [1, 15]: 10 to 100 nM
IC50 [1, 16]: < 10 nM
IC50 [2, 17]: 100 to 1000 nM
IC50 [2, 18]: < 10 nM
IC50 [3, 19]: 10 to 100 nM
IC50 [3, 20]: < 10 nM
IC50 [4, 21]: < 10 nM
IC50 [5, 22]: > 1000 nM
IC50 [5, 23]: 10 to 100 nM

Cc1nn(C)c2c1-c1nccc(n1)Nc1cc(c(-c3ncc(C(C)(C)O)cn3)cn1)NCC[C@@H](C)O2
IC50 [1, 6]: < 10 nM
IC50 [1, 7]: < 10 nM
IC50 [2, 8]: 10 to 100 nM
IC50 [2, 9]: < 10 nM
IC50 [3, 10]: < 10 nM
IC50 [3, 11]: < 10 nM
IC50 [4, 12]: < 10 nM
IC50 [4, 13]: < 10 nM
IC50 [5, 14]: > 1000 nM
IC50 ([5]; read-out: EGFR WT IC50, ATP Km): 10 to 100 nM

CC[C@H]1CCOc2c(cnn2C)-c2nccc(n2)Nc2cc(c(-c3ccn(C(F)F)n3)cn2)N1
IC50 [1, 6]: 10 to 100 nM
IC50 [1, 7]: 10 to 100 nM
IC50 [2, 8]: 100 to 1000 nM
IC50 [2, 9]: < 10 nM
IC50 [3, 10]: < 10 nM
IC50 [3, 11]: < 10 nM
IC50 [4, 12]: < 10 nM
IC50 [4, 13]: < 10 nM
IC50 [5, 14]: > 1000 nM
IC50 ([5]; read-out: EGFR WT IC50, ATP Km): 10 to 100 nM

Cc1nn(C)c2c1-c1nccc(n1)Nc1cc(c(-c3ncc(C(C)(C)F)cn3)cn1)NCC[C@H](C)O2
IC50 [1, 6]: 10 to 100 nM
IC50 [1, 7]: < 10 nM
IC50 [2, 8]: 100 to 1000 nM
IC50 [2, 9]: < 10 nM
IC50 [3, 10]: < 10 nM
IC50 [3, 11]: < 10 nM
IC50 [4, 12]: < 10 nM
IC50 [4, 13]: < 10 nM
IC50 [5, 14]: > 1000 nM
IC50 ([5]; read-out: EGFR WT IC50, ATP Km): 10 to 100 nM
